# Reference: US20170183390A1
# By UniProt entry, the sequences of proteins in these tests, tags left out. Residues count along the entry.
# UniProt P01137, 30-390 limits assumed: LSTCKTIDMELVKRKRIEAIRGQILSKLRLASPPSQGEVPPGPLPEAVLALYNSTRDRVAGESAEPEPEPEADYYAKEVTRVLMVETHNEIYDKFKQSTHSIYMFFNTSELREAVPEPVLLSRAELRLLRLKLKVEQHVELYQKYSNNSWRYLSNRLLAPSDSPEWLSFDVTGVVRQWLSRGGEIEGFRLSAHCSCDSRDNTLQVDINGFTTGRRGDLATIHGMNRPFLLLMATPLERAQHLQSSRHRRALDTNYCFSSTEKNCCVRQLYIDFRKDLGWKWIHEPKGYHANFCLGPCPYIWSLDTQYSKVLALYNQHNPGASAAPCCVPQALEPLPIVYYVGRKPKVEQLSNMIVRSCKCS
# Biological target: purified pro-TGF-β1 (UniProt P01137)
# Experiment: Biacore (SPR); orientation not stated
substance,measurement,value
"3-domain αVβ6 integrin fragment, disulfide-linked (αV β-propeller and thigh domains with M400C; β6 βI domain with I270C) (from UniProt P06756 31-625; P18564 130-372) (receptor)",Kd,180 pM
